# Data taken from ChEMBL document CHEMBL1926544, “Tyrosine-based 1-(S)-[3-hydroxy-2-(phosphonomethoxy)propyl]cytosine and -adenine ((S)-HPMPC and (S)-HPMPA) prodrugs: synthesis, stability, antiviral activity, and in vivo transport studies” (J Med Chem, 2011).
# Tests used:
# [1] = Half life in phosphate buffer at pH 6.5 at 37 degC by LC/MS analysis; type: physicochemical
# Procedure, shortened: (§1)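 Compound dissolved from 1 mg/ml aqueous stock into preheated 200 mM phosphate buffer (pH 6.5 or 7.4), 37 °C water bath. Aliquots of 25 µL taken over time and analysed by LC-MS (C18, 0–30% acetonitrile in ammonium acetate pH 5.5, ESI positive, UV 260/274 nm). Half-lives determined for each diastereomer.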
# [2] = Half life in phosphate buffer at pH 7.4 at 37 degC assessed as half life by LC/MS analysis; type: physicochemical; procedure, shortened: as §1
# [3] = Half life in Sprague-Dawley rat intestinal homogenate at pH 6.5 by LC/MS analysis; type: ADME, tissue-based, Intestine
# Procedure, shortened: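 Sprague-Dawley rat intestine homogenized in 0.1 M phosphate buffer pH 6.5 and centrifuged at 14,000 × g. Compound stock (1 mg/ml, 400 µL) mixed with 260 µL buffer and 140 µL homogenate, 37 °C. Samples taken over time, quenched with methanol, centrifuged, supernatant analysed by LC-MS (C18, acetonitrile gradient in ammonium acetate pH 5.5). Run separately for each phosphorus diastereomer.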
# [4] = system: HFF; assay: Cytotoxicity against HFF cells after 48 hrs by visual cytotoxicity observation assay; type: cell-based; details: Homo sapiens
SMILES,half-life [1],half-life [2],half-life [3],IC50 [4]
COC(=O)[C@H](Cc1ccc(O[P@@]2(=O)CO[C@@H](Cn3ccc(N)nc3=O)CO2)cc1)NC(=O)[C@@H](N)C(C)C,5.77 h,1.02 h,< 0.5 h,–
COC(=O)[C@H](Cc1ccc(O[P@]2(=O)CO[C@@H](Cn3ccc(N)nc3=O)CO2)cc1)NC(=O)[C@@H](N)C(C)C,1.12 h,0.2 h,< 0.5 h,–
COC(=O)[C@H](Cc1ccc(OP2(=O)CO[C@@H](Cn3ccc(N)nc3=O)CO2)cc1)NC(=O)[C@@H](N)C(C)C (mixture of isomers),–,–,–,> 100 µM
